Earlier results on 2 compounds are cited in patent US7179597B2, “Genetic diagnosis for QT prolongation related adverse drug reactions” (Georgetown University, priority 2000, dated 2007).

The chains behind the UniProt entries cited, without tags or fusion partners.
UniProt P10635, whole entry: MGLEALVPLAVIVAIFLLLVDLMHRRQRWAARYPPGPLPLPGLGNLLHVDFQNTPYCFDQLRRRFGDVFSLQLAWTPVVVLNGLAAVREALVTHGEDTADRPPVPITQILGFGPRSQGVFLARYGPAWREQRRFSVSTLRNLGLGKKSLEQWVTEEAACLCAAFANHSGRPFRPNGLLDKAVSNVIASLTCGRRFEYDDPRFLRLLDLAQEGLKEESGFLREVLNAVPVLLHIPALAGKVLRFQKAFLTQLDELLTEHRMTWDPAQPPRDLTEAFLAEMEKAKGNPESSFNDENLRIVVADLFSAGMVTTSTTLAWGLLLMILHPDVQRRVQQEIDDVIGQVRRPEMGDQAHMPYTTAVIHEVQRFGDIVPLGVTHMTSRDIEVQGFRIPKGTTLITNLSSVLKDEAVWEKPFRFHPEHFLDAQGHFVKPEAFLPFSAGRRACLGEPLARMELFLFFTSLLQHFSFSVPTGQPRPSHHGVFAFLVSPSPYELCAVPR

For data set [1], the target named is CYP2D6 (Homo sapiens, UniProt P10635). The following applies: Table 3; cited from earlier work.
For data set [2] the following is noted: Table 2; drug labeling; cited from earlier work.

With `Cc1nc2n(c(=O)c1CCN1CCC(c3noc4cc(F)ccc34)CC1)CCCC2` [Risperidone], in data set [1], the “Interactions: cytochrome P-450 isoform 2D6, substrate or inhibitor” value is “Substrate”.
As for Levomethadyl, the QT result in data set [2] was “Yes”.
